US6482850B2, “Hydrolysis-promoting hydrophobic taxane derivatives” (priority 1995, dated 2002)

Tested on: OVCAR-3 human ovarian cancer
Experiment: i.p. OVCAR-3 tumor, i.p. treatment, survival
Conditions: treated days 1, 3, 5, 7 and 9 i.p., 12.5 mg/kg; long-term survivors not included

Compound: CC(=O)O[C@H]1C(=O)[C@@]2(C)[C@H]([C@H](OC(=O)c3ccccc3)[C@]3(O)C[C@H](OC(=O)[C@H](O)[C@@H](NC(=O)c4ccccc4)c4ccccc4)C(C)=C1C3(C)C)[C@]1(OC(C)=O)CO[C@@H]1C[C@@H]2O [Paclitaxel, reference compound]
- MST Days ± SEM (n): 145 ± 8 (5) Days
- Median survival time: 145 days
